The numbers were not newly measured in patent publication US20040258692A1, “Method for the treatment of cardiotoxicity induced by antitumor compounds” (priority 2001, published 2004), which cites them from elsewhere.

Where two headings read alike, the source gives them in different places.

For the data set, the system named is metastatic breast cancer (MBC). As to conditions: first-line or second-line therapy for MBC, cited from earlier work.

As to “Trastuzumab: recombinant DNA-derived humanized monoclonal antibody (IgG1 kappa) that binds HER2”, the response rates is, setting by setting: (single-agent trastuzumab) 12% to 23; (trastuzumab plus chemotherapy) 25% to 62.
